Source: article PMC3904085 (2014)
Where two headings read alike, the source gives them in different places.

Protein sequences, listed by entry. Tags and fused reporters are not part of them.
UniProt O43613, whole entry: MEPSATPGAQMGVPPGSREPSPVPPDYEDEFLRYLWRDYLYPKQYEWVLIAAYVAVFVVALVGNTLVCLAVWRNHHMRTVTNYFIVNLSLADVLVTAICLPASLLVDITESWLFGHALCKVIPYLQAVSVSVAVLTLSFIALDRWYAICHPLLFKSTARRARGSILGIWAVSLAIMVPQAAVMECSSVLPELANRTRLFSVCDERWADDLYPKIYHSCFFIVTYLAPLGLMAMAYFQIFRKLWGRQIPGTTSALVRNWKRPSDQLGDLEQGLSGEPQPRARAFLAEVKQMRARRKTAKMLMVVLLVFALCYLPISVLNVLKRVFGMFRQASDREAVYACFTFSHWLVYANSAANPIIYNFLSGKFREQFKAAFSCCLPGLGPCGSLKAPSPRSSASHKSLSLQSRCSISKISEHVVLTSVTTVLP
UniProt P56718, whole entry: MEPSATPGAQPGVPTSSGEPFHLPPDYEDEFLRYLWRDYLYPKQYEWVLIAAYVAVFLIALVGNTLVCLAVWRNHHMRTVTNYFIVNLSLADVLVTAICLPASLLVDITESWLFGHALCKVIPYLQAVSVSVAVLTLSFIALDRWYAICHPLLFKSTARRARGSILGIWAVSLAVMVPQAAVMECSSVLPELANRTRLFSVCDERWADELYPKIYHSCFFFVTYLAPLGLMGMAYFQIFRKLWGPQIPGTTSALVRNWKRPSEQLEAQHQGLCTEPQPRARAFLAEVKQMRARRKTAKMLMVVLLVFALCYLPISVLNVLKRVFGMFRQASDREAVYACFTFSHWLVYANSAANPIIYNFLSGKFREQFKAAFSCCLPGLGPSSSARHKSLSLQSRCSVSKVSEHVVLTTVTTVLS
UniProt P56719, whole entry: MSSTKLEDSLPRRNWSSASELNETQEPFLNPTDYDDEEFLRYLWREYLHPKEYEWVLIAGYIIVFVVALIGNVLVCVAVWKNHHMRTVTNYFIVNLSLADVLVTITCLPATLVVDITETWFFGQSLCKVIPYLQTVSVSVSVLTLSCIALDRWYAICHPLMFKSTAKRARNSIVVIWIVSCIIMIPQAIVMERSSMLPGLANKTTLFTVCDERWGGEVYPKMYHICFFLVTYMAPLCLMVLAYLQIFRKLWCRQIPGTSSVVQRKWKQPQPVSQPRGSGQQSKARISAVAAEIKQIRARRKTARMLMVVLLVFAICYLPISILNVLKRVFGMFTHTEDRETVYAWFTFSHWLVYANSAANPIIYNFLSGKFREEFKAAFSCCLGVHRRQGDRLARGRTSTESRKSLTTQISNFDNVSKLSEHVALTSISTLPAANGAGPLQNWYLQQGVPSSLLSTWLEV

Columns and labels:
human OX1 receptors [1] = target: T1, human OX1 receptors (Homo sapiens, UniProt O43613); assay: Radioligand binding, [125I]-Orexin A displacement, HEK293 membranes
human OX1 receptors [2] = target: T1, human OX1 receptors; assay: Intracellular calcium mobilization (FLIPR), antagonist mode vs EC70 orexin-A
rat OX1 receptors = rat OX1 receptors (Rattus norvegicus, UniProt P56718); assay: cell-based
rat OX2 receptors = rat OX2 receptors (Rattus norvegicus, UniProt P56719); assay: cell-based

## CNC(=O)[C@@H](c1ccccc1)N1CCc2cc(OC)c(OC)cc2[C@@H]1CCc1ccc(C(F)(F)F)cc1 [Almorexant (S)]
Human OX1 receptors [1]
  Ki: 21 ± 3.2 nM
Human OX1 receptors [2]
  Kb: 2.32 ± 0.18 nM

## Cc1nc2ccc(NC(=O)Nc3ccnc4cccnc34)cc2o1 [SB334867]
Rat OX1 receptors
  Kb: 7.1 ± 0.71 nM
Rat OX2 receptors
  Kb: > 10000 nM

## CNC(=O)[C@@H](c1ccccc1)N1CCc2cc(OC)c(OC)cc2[C@@H]1CCc1ccc(C(F)(F)F)cc1 [Almorexant (R)]
Human OX1 receptors [1]; read-out: Receptor binding affinity, Ki OX1, HEK293 membranes, [125I]-orexin A, 90 min, mean ± s.e.m. (n)
  Ki: > 10000 nM
Human OX1 receptors [2]; read-out: Functional antagonist activity, Kb hOX1, HEK293 cells, calcium mobilization, EC70 orexin-A, mean ± s.e.m. (n)
  Kb: > 10000 nM
